Bioassay records from PubChem.
Sampled rows, rich in hits. Any-hit rate of the full collection: about 16%.
TDP1 inh: blocks human tyrosyl-DNA phosphodiesterase 1. Potency, µM (highest dose often 130 µM), most hits filed as inhibitors. Q9NUW8. actives 0.28% (n = 350,000). recombinant TDP1, AlphaScreen DNA substrate cleavage. AID 485290; also: nearly all actives have a fitted effect of over 40% in size
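Recombinant E. coli-expressed Tdp1 (1 nM) preincubated with compound 15 min at RT, then 5'-biotin/3'-phosphotyrosine-FITC DNA substrate (15 nM) added for 5 min. AlphaScreen beads (10 ug/ml) added, 10 min RT; tyrosine-FITC cleavage read as signal loss.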
miR-21 reporter: miR-21 reporter, rising signal; HeLa miR-21 FLuc reporter, luciferase, 48 h; Potency, µM (doses to about 38.3 µM); 340,000 tested, under 10 active; AID 2288; active = well fitted rising curve with a large enough effect; inconclusive = small, poorly fitted or top-dose-only effect; inactive = no such curve, though single readings can be large or run the other way;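 further: miR-21 action dims this reporter so a rising signal means less miR-21 action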
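Compounds were titrated across several concentrations (up to approximately 40 uM) and incubated 48 hours with HeLa miR-21-FLuc reporter cells (miR-21 target sequence downstream of FLuc, endogenous miR-21). Readout was firefly luciferase luminescence after lytic detection reagent.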
DT40 TDP1 no CPT: qHTS for Inhibitors of human tyrosyl-DNA phosphodiesterase 1 (TDP1): qHTS in cells in absence of CPT. DT40 Tdp1-/- hTDP1 cells, no CPT, ATP luminescence, 48 h. actives 15% (n = 420,000). Potency, µM (highest dose often 46.2 µM), actives largely listed as inhibitors; also: nearly all actives have a fitted effect of over 55% in size
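Growth kinetics read by CellTiter-Glo luminescence after ≥48 hr at 37 °C. Cells: DT40 Tdp1-/- stably carrying human TDP1, 400 per well, compound exposure in the absence of CPT (DMSO vehicle).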
DT40 TDP1 CPT: DT40-hTDP1 cell growth loss with CPT; chicken DT40 Tdp1-/-;hTDP1 cells + 20 nM CPT, ATP luminescence, 48 h; Potency, µM (highest dose often 46.2 µM), most hits filed as inhibitors; actives 12% (n = 420,000); AID 686979; also: nearly all actives have a fitted effect of over 55% in size
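Chicken DT40 Tdp1-/- cells stably complemented with human TDP1 were seeded at 400 cells/well in medium containing 20 nM camptothecin, exposed to pin-transferred compounds, and grown at 37 °C for at least 48 hr. Viability was read as ATP luminescence.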
uPA surface inh: inhibitors of cell surface uPA generation. cell surface uPA generation assay, qHTS. Potency, µM (series often up to 38.3 µM), hits mostly inhibitors. AID 540303. actives 0.31% (n = 330,000); active = well fitted inhibition curve with a large enough effect; inconclusive = small, poorly fitted or top-dose-only effect; inactive = no such curve, though single readings can be large or run the other way; tested in mouse RAW 264.7 cells; also: nearly all actives have a fitted effect of over 55% in size
Of the large screens only hits and unclear results are named; the others gave an inactive call. Unless noted, calls follow the shape of the dose curve; as a rule, active = well fitted curve in the direction sought with a large enough effect; inconclusive = small, poorly fitted or top-dose-only effect, or another doubt; inactive = no such curve, though single readings can be large; an effect the other way counts as inactive or inconclusive.

COc1cc(C(C)=O)ccc1COc1ccc(C(=O)OCC(=O)NC(C)(C)C)cc1OC	DT40 TDP1 no CPT inconclusive, DT40 TDP1 CPT inconclusive
COc1cc(C(=O)OCC(=O)NCC2CCCCC2)ccc1OCC(C)C	DT40 TDP1 no CPT inconclusive, DT40 TDP1 CPT inconclusive (no result: miR-21 reporter)
COc1cc(C(=O)OCC(=O)NC2CCCCCC2)ccc1OCC(C)C	DT40 TDP1 no CPT 3.3µM, DT40 TDP1 CPT inconclusive (no result: miR-21 reporter)
COc1cc(C(C)=O)ccc1COc1ccc(C(=O)OCC(=O)NC2CCS(=O)(=O)C2)cc1OC (centres undefined)	DT40 TDP1 no CPT 21µM, DT40 TDP1 CPT inconclusive
COc1cccc(Oc2cnc(N)nc2-c2ccc(OC)cc2O)c1	DT40 TDP1 no CPT 2.3µM, DT40 TDP1 CPT 2.9µM
COc1ccc(-c2nc(N)nc(C(F)(F)F)c2-c2ccccc2OC)c(O)c1	DT40 TDP1 no CPT 23µM, DT40 TDP1 CPT inconclusive (no result: TDP1 inh)
COc1ccc(-c2nc(N)ncc2Oc2ccccc2Br)c(O)c1	DT40 TDP1 no CPT inconclusive
CCOC(=O)Nc1ccc2c(c1)N(C(=O)CCN1CCOCC1)c1ccccc1S2=O (centres undefined)	miR-21 reporter inconclusive, DT40 TDP1 no CPT 5.8µM, DT40 TDP1 CPT 3.7µM
CCOC(=O)Nc1ccc2c(c1)N(C(=O)CCN1CCOCC1)c1ccccc1S2	DT40 TDP1 CPT inconclusive
OCCNc1nc(SCc2ccccc2)nc2sc3c(c12)CCC3	DT40 TDP1 no CPT 15µM, DT40 TDP1 CPT inconclusive
COCCNc1nc2sc3c(c2c(=O)n1Cc1ccco1)CCCCC3	DT40 TDP1 no CPT 16µM, DT40 TDP1 CPT 13µM
O=c1c2c3c(sc2nc(NCCO)n1CCc1ccccc1)CCCCC3	DT40 TDP1 no CPT 4.1µM, DT40 TDP1 CPT 5.8µM, uPA surface inh inconclusive
CCOC(=O)C1=C(COC(=O)/C=C/c2cccc(Cl)c2)NC(=O)NC1C (centres undefined)	none (no result: miR-21 reporter)
COc1ccc(CCN(C)Cc2cccc3ccccc23)cc1OC	DT40 TDP1 CPT inconclusive (no result: TDP1 inh)
CNCc1ccccc1Sc1ccc(OC)cc1	DT40 TDP1 no CPT inconclusive, DT40 TDP1 CPT inconclusive
CNCc1ccccc1Sc1cccc2ccccc12	DT40 TDP1 no CPT 23µM, DT40 TDP1 CPT 23µM
CN(C)CCN(C)Cc1ccccc1Sc1cccc2ccccc12	DT40 TDP1 no CPT 8.2µM, DT40 TDP1 CPT 9.2µM
Cc1ccc(CNS(=O)(=O)c2ccc3c(c2)OCCO3)cc1	DT40 TDP1 no CPT inconclusive, DT40 TDP1 CPT inconclusive
Cc1ccc(-c2csc(N3CCC(NS(=O)(=O)c4ccc5c(c4)OCCO5)CC3)n2)cc1	miR-21 reporter inconclusive, DT40 TDP1 no CPT 15µM, DT40 TDP1 CPT inconclusive
CCOc1ccc(-n2c(-c3ccc(Cl)cc3)c[n+]3c2SCC3)cc1	miR-21 reporter inconclusive, DT40 TDP1 no CPT 2.1µM, DT40 TDP1 CPT 1.8µM
CCOc1ccc(C2=CSC3=NCCN23)cc1	none
c1ccc(-c2c[n+]3c(n2-c2ccccc2)SCC3)cc1	DT40 TDP1 no CPT 21µM, DT40 TDP1 CPT inconclusive
c1ccc(-n2c3ccccc3c3ccccc32)cc1	DT40 TDP1 no CPT inconclusive, DT40 TDP1 CPT inconclusive
C/C=C1\C(=O)CC2C3CCC4=CC(=O)CC[C@]4(C)C3CC[C@]12C (some centres undefined)	none (no result: miR-21 reporter, DT40 TDP1 no CPT, DT40 TDP1 CPT, uPA surface inh)
Cn1c(=O)c(C(=O)CN2CCCCCC2)c(N)n(Cc2ccccc2)c1=O	none
CCCOc1ccc(C2/C(=C(/O)c3ccc(F)cc3)C(=O)C(=O)N2CCCN(C)C)cc1 (centres undefined)	none
CC(C)NC(=O)Cn1c(=O)nc(-c2ccccc2F)c2cc(Cl)ccc21	DT40 TDP1 no CPT 7.3µM (no result: uPA surface inh)
COc1ccc(NC2=NCC(Cc3ccc(Br)cc3)S2)cc1 (centres undefined)	DT40 TDP1 no CPT 26µM, DT40 TDP1 CPT inconclusive
O=C(COC(=O)/C=C/c1ccc(Cl)cc1)NC(=O)NCc1ccccc1	DT40 TDP1 CPT inconclusive (no result: miR-21 reporter)
CC(=O)c1ccc(OCCCC(=O)Nc2ccc3c(c2)OCCO3)cc1	none (no result: miR-21 reporter)
CCO[C@@H]1OC(C(=O)N2CCCCCCC2)=C[C@H](c2cn(C(C)=O)c3ccccc23)[C@H]1CCCO	DT40 TDP1 no CPT inconclusive, DT40 TDP1 CPT 16µM
CCO[C@@H]1OC(C(=O)N2CCCCCCC2)=C[C@H](c2csc3ccccc23)[C@H]1CCCO	DT40 TDP1 no CPT 23µM, DT40 TDP1 CPT 21µM
CC[C@H](C)[C@@H]1NC(=O)[C@@H](CC(C)C)NC(=O)[C@H](C(C)C)NC(=O)[C@H]2CSSC[C@H](NC1=O)C(=O)N2	DT40 TDP1 no CPT 0.033µM, DT40 TDP1 CPT 0.065µM (no result: TDP1 inh, miR-21 reporter, uPA surface inh)
